Values of other authors, collected in patent publication US8536118B2, “Methods and compositions for modulating hyperstabilized c-met” (Genentech, Inc., priority 2005, dated 2013).

Test system: B-cell non-Hodgkin's Lymphoma (NHL)
Conditions: cited from earlier work

B1: ibritumomab tiuxetan (conjugate, chains of the INN, looked up)
heavy: QAYLQQSGAELVRPGASVKMSCKASGYTFTSYNMHWVKQTPRQGLEWIGAIYPGNGDTSYNQKFKGKATLTVDKSSSTAYMQLSSLTSEDSAVYFCARVVYYSNSYWYFDVWGTGTTVTVSAPSVYPLAPVCGDTTGSSVTLGCLVKGYFPEPVTLTWNSGSLSSGVHTFPAVLQSDLYTLSSSVTVTSSTWPSQSITCNVAHPASSTKVDKKIEPRGPTIKPCPPCKCPAPNLLGGPSVFIFPPKIKDVLMISLSPIVTCVVVDVSEDDPDVQISWFVNNVEVHTAQTQTHREDYNSTLRVVSALPIQHQDWMSGKEFKCKVNNKDLPAPIERTISKPKGSVRAPQVYVLPPPEEEMTKKQVTLTCMVTDFMPEDIYVEWTNNGKTELNYKNTEPVLDSDGSYFMYSKLRVEKKNWVERNSYSCSVVHEGLHNHHTTKSFSR
light: QIVLSQSPAILSASPGEKVTMTCRASSSVSYMHWYQQKPGSSPKPWIYAPSNLASGVPARFSGSGSGTSYSLTISRVEAEDAATYYCQQWSFNPPTFGAGTKLELKRADAAPTVFIFPPSDEQLKSGTASVVCLLNNFYPREAKVQWKVDNALQSGNSQESVTEQDSKDSTYSLSSTLTLSKADYEKHKVYACEVTHQGLSSPVTKSFN
modifications: tiuxetan chelator
clinical activity (B-cell non-Hodgkin's Lymphoma): has activity against B-cell non-Hodgkin's Lymphoma (NHL)
adverse effect of administration (human, in vivo): severe and prolonged cytopenias in most patients
